## Apparent affinities of Ab-14 variants for a coronavirus HR2 peptide

Source: Li et al. 2023 (doi:10.1038/s41467-023-39022-2), MIT Lincoln Laboratory and A-Alpha Bio; data file from the FLAb repository.

Target: peptide PDVDLGDISGINAS, taken from heptad repeat 2 (HR2) of SARS-CoV-2 spike.

Parent: Ab-14, a human scFv built as VH, a 15-residue (Gly4Ser)3 linker, VL. Only the CDRs of the light chain vary.
VH: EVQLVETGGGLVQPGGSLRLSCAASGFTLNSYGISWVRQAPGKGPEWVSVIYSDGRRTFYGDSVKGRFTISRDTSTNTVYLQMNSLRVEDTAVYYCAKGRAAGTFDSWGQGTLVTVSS
VL: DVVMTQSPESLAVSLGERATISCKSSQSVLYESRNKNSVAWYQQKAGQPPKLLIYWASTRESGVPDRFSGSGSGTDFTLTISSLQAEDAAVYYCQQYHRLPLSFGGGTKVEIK

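The parent was found by panning a naive human phage display library on the peptide. This is the validation round: designs drawn from the data on random variants, tested in the same kind of assay. Their group label is 14L_GP_Gen (GP: Gaussian process model; Gen: genetic algorithm; a sequence that several methods proposed may carry one label only). Affinity was read by AlphaSeq, a pooled yeast mating assay with surface-displayed partners. After mating in shaken culture at 30 °C for 16 h, diploids were selected and their barcode pairs sequenced. Read counts were normalised to the haploid input and turned into Kd by a linear fit to BCL2-family pairs of known affinity, for each replicate. There are six technical replicates.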

Changes read parent residue, position, new residue, counted from the first residue of the VL shown.
Values are log10 of the apparent Kd in nM; lower means stronger binding.
An entry "nd" has no value in the source: the pair was not observed among the diploids in that replicate. This suggests poor binding but is not conclusive.
The authors' rule: three or more of the six replicates give a measured affinity, fewer mean a poor binder.

changes	replicates, log10 nM	empty controls
S25V/V29Q/W56E	0.26 0.35 0.38 0.11 0.27 0.35	0 of 18
S25F/S26E/W56E	-0.29 -0.29 -0.47 -0.56 -0.37 -0.15	4 of 18 (2.81)
S25L/S26Q/S38N/W56D	0.09 -0.32 -0.13 -0.74 -0.52 -0.17	0 of 18
V29E/L30D/W56N	0.12 0.14 0.31 0.07 -0.21 0.34	2 of 18 (4.43)
S25L/Q27P/V29E/W56N	0.33 0.00 0.08 -0.24 0.06 0.14	0 of 18
L30W/W56E	0.45 1.04 0.55 0.74 0.75 0.72	0 of 18
S25L/S33A/W56N	-0.52 -0.70 -0.81 -0.76 -0.43 -0.46	1 of 18 (1.61)
K24F/S25L/V29W/W56N/T59Q	0.98 0.64 0.66 0.58 1.11 0.63	0 of 18
S25V/V29Y/L30P/W56N	0.24 -0.25 0.12 -0.18 -0.09 0.02	1 of 18 (1.44)
S25L/L30P/K36T/W56N	-0.12 -0.35 -0.39 -0.37 -0.36 -0.10	0 of 18
S25L/S26Y/V29H/W56N/E61C	0.25 0.08 -0.27 0.18 0.29 0.52	2 of 18 (4.33)
S25V/W56N/T59Q/E61M	0.69 0.35 0.74 0.30 0.55 0.56	0 of 18
S25L/V29A/W56N/T59Q	0.47 0.38 0.15 0.17 0.29 0.52	1 of 18 (2.99)
S25L/V29W/W56N/E61L/S62M	0.53 -0.07 0.00 0.24 -0.22 0.29	1 of 18 (1.92)
S25L/S26E/Q27M/V29W/W56N/T59Q	0.98 0.86 0.27 0.13 0.34 0.88	0 of 18
S25L/S26Y/V29M/W56N/T59Q	-0.04 -0.17 -0.31 -0.37 -0.28 -0.22	1 of 18 (3.29)
S25F/V29F/W56E/T59Q	-0.74 -0.64 -0.67 -0.75 0.03 -0.51	0 of 18
S25L/V29D/W56G/Q96A	0.01 -0.10 0.12 -0.10 0.09 0.12	1 of 18 (4.12)
S25L/S26M/W56N/E61Y	0.49 0.41 0.20 0.46 0.53 0.62	0 of 18
S25L/V29W/S38A/W56N/S62D	-0.32 -0.52 -0.44 -0.62 -0.57 -0.36	5 of 18 (3.25)
S25L/S26Q/K36W/W56N	-0.34 -0.41 -0.31 -0.36 -0.21 -0.35	2 of 18 (3.07)
S25L/V29W/W56N/E61M	0.21 -0.02 -0.02 0.03 -0.08 -0.02	2 of 18 (3.54)
S25V/S26P/V29F/W56N	0.00 -0.10 -0.26 -0.30 -0.43 -0.20	0 of 18
S25L/V29Y/W56H/E61C	0.57 0.60 0.50 0.42 0.46 0.61	3 of 18 (2.46)
S25L/W56N/E61M/S62Q/Q96D	0.04 -0.22 -0.15 -0.23 -0.08 -0.20	1 of 18 (3.13)
S25L/V29W/K36C/W56N/T59Q	0.32 0.20 -0.07 0.50 0.09 1.00	0 of 18
S25V/W56N/S103V	-0.15 -0.13 -0.36 -0.46 0.09 -0.19	0 of 18
S25L/S26Q/V29W/L30P/W56N/T59Q	0.56 0.82 1.23 0.59 1.00 0.92	1 of 18 (3.43)
S25L/L30W/N35M/W56N/S62Q	0.06 0.45 0.70 0.38 0.16 0.51	0 of 18
S25V/V29H/W56N/S62Q	0.07 -0.17 -0.20 -0.16 -0.31 -0.24	1 of 18 (3.21)
S26P/W56N/T59Q	0.26 0.59 0.32 0.45 0.34 0.49	0 of 18
S25L/S26P/V29T/W56Q/T59Q	0.22 0.36 0.34 0.41 -0.01 0.37	2 of 18 (2.50)
S25V/S26P/V29Q/W56N	-0.19 -0.06 -0.17 -0.33 -0.03 -0.34	0 of 18
S25V/V29E/L30P/W56N/T59Q	nd nd nd nd nd nd	1 of 18 (0.84)
S25L/W56D/Q96A	0.02 -0.07 0.10 -0.13 -0.17 -0.11	1 of 18 (2.95)
S25L/L30M/W56N/S62D	-0.13 -0.16 -0.34 -0.34 -0.11 -0.10	0 of 18
S25V/L30M/W56N	-0.17 -0.23 -0.35 -0.32 -0.22 -0.22	2 of 18 (2.36)
K24H/S25L/W56G	-0.18 -0.37 -0.40 -0.46 -0.40 -0.20	0 of 18
S25L/V29Q/K36S/W56N	3.16 nd nd nd nd nd	0 of 18
S25V/S33Q/W56H	-0.07 0.18 0.12 -0.06 0.27 0.03	1 of 18 (2.17)
S25L/S26E/V29D/W56N/E61L	0.14 -0.30 -0.03 -0.26 -0.28 -0.13	0 of 18
S25F/S26E/V29Q/W56N/E61C	-0.31 -0.12 -0.21 -0.25 0.06 0.15	0 of 18
S25L/N35C/W56N	0.49 0.38 0.36 0.10 0.41 0.51	3 of 18 (2.41)
S25L/V29N/L30G/W56N/T59Q	0.10 0.12 -0.20 -0.27 -0.01 -0.03	1 of 18 (5.03)
S25L/S26W/V29Q/W56N	0.07 -0.14 -0.30 -0.25 -0.25 0.10	0 of 18
S25L/S28W/V29W/W56N/T59Q	0.44 0.09 0.15 0.15 0.16 0.14	1 of 18 (2.86)
S25L/V29E/K36P/W56N/E61L	-0.39 -0.05 -0.41 -0.52 -0.30 -0.29	2 of 18 (1.83)
S25L/V29M/W56E	-0.02 -0.03 -0.25 -0.49 -0.29 -0.04	0 of 18
S25L/W56N/S103L	0.25 0.20 0.16 0.04 0.13 0.19	0 of 18
S25L/S26W/V29W/W56N/T59Q	0.22 -0.01 -0.03 -0.03 -0.09 0.05	1 of 18 (2.90)
S25L/Q27M/V29E/W56N	-0.23 -0.40 -0.59 -0.69 -0.57 -0.40	1 of 18 (3.23)

The last 7 entries again:

| changes | replicates, log10 nM | empty controls |
|---|---|---|
| S25L/S26W/V29Q/W56N | 0.07 -0.14 -0.30 -0.25 -0.25 0.10 | 0 of 18 |
| S25L/S28W/V29W/W56N/T59Q | 0.44 0.09 0.15 0.15 0.16 0.14 | 1 of 18 (2.86) |
| S25L/V29E/K36P/W56N/E61L | -0.39 -0.05 -0.41 -0.52 -0.30 -0.29 | 2 of 18 (1.83) |
| S25L/V29M/W56E | -0.02 -0.03 -0.25 -0.49 -0.29 -0.04 | 0 of 18 |
| S25L/W56N/S103L | 0.25 0.20 0.16 0.04 0.13 0.19 | 0 of 18 |
| S25L/S26W/V29W/W56N/T59Q | 0.22 -0.01 -0.03 -0.03 -0.09 0.05 | 1 of 18 (2.90) |
| S25L/Q27M/V29E/W56N | -0.23 -0.40 -0.59 -0.69 -0.57 -0.40 | 1 of 18 (3.23) |

The range of this assay differs from that of the first round, and the authors advise against merging the two.
As a blank, each scFv also met three strains without target: over all light chain designs, 4% of these pairings were detected, typically at 2.64 and seldom below 1.59. Also given: how often the same scFv was detected with the empty control strains, with their mean in brackets.